Results reported in ChEMBL document CHEMBL1938337, “Discovery of novel, potent, and selective inhibitors of 3-phosphoinositide-dependent kinase (PDK1)” (J Med Chem, 2011).

Columns and labels:
[1] = Selectivity ratio of Ki for mouse PI3Kalpha to Ki for recombinant human His-tagged PDK1 catalytic domain
[2] = test system: A549; assay: Ratio of IC50 for PDK1-mediated AKT1 phosphorylation at T308 in human A549 cells to Ki for recombinant human His-tagged PDK1 catalytic domain; format: cell-based
[3] = species: Homo sapiens; assay: Selectivity ratio of IC50 for GSK3-beta to Ki for recombinant human His-tagged PDK1 catalytic domain
[4] = species: Homo sapiens; assay: Selectivity ratio of IC50 for MARK1 to Ki for recombinant human His-tagged PDK1 catalytic domain
[5] = species: Homo sapiens; assay: Selectivity ratio of IC50 for Aurora A to Ki for recombinant human His-tagged PDK1 catalytic domain
[6] = species: Homo sapiens; assay: Selectivity ratio of IC50 for TrkA to Ki for recombinant human His-tagged PDK1 catalytic domain
[7] = test system: SK-OV-3; assay: Ratio of IC50 for PDK1-mediated AKT1 phosphorylation at T308 in human SKOV3 cells to Ki for recombinant human His-tagged PDK1 catalytic domain; format: cell-based
[8] = species: Homo sapiens; assay: Selectivity ratio of Ki for recombinant GST-tagged P70S6K to Ki for recombinant human His-tagged PDK1 catalytic domain

Row | SMILES | Ratio Ki [1] | Ratio [2] | Ratio [3] | Ratio [4] | Ratio [5] | Ratio [6] | Ratio [7] | Ratio Ki [8]
1 | CC(=O)N1CC[C@@H](Nc2cncc(C(=O)c3cn(C(C)C)c4ncnc(N)c34)n2)[C@H]1c1ccc(F)cc1 | 1000 | 100 | 100 | 100 | 100 | 100 | 100 | –
2 | CC(C)n1cc(C(=O)c2cncc(N[C@@H]3CCO[C@@H]3c3ccc(F)cc3)n2)c2c(N)ncnc21 | – | – | – | – | – | – | – | 50
3 | CC(C)n1cc(C(=O)c2cncc(N[C@@H]3CCN(C=O)[C@@H]3c3ccc(F)cc3)n2)c2c(N)ncnc21 | – | 100 | 100 | 100 | 100 | 100 | 100 | –
4 | CC(=O)N1CC[C@@H](Nc2cncc(C(=O)c3cn(C(C)C)c4ncnc(N)c34)n2)[C@H]1c1ccccc1 | – | 100 | 100 | 100 | 100 | 100 | 100 | –
5 | CC(C)n1cc(C(=O)c2cncc(N[C@@H]3CCC[C@@H]3c3ccc(F)cc3)n2)c2c(N)ncnc21 | 500 | – | – | – | – | – | – | –
